Tests used:
[1] = target: HLA-A0101 (human); experiment: competition with 125I-labelled probe peptide, purified HLA
[2] = target: HLA-A*0101 (human); experiment: competition with 125I-labelled probe peptide on purified HLA-A*0101

Binder | Ki [1] [nM] | IC50 [2] [nM]
ATDALMTGYT (modifications not checked) | 227 | 227
LTCGFADLM (modifications not checked) | 759 | –
VIDTLTCGF (modifications not checked) | 1020 | –

Source: patent publication US20060093617A1
